Test results: patent publication US20160025730A1, “METHODS OF SELECTING COMBINATION THERAPY FOR COLORECTAL CANCER PATIENTS” (NESTEC S.A., priority 2013, published 2016)

What was measured:
HER1:HER3 = test: CEER ErbB heterodimerization assay, HER1:HER3 dimer; conditions: Lim1215 cells, 24 h, assay range 200-20000
HER2 = test: CEER total HER2 expression level; assay type: cell-based, human; conditions: Lim1215 cells, 24 h, assay range 390-25000
MEK = test: CEER phospho MEK level; conditions: Lim1215 cells; 24 h; series 2 (FIG. 2; Control 38.0); assay range 1.02-100
HER3 [1] = test: CEER total HER3 expression level; assay type: cell-based, human; conditions: Lim1215 cells, 24 h, assay range 390-25000
HER2:HER3 = test: CEER ErbB heterodimerization assay, HER2:HER3 dimer; conditions: Lim1215 cells, 24 h, assay range 50-1500
ERK = test: CEER phospho ERK level; conditions: Lim1215 cells, 24 h, assay range 1.02-100
RSK = test: CEER phospho RSK level; assay type: cell-based, human; conditions: Lim1215 cells, 24 h, assay range 2.56-100
Source text: These were complemented by ErbB heterodimerization assays using CEER.

HER1 = test: CEER total HER1 expression level; conditions: Lim1215 cells, 24 h, assay range 7.8-500
HER3 [2] = test: CEER phospho HER3 activation level; conditions: Lim1215 cells, 24 h, assay range 12.8-1500
HER1:HER2 = test: CEER ErbB heterodimerization assay, HER1:HER2 dimer; conditions: Lim1215 cells, 24 h, assay range 7.8-1000
AKT = test: CEER phospho AKT level; conditions: Lim1215 cells, 24 h, assay range 1.02-40

Q: For trastuzumab, which “ErbB Dimer Formation HER1:HER3 (0.5 ug)” value (HER1:HER3; series 2 (FIG. 2; Control 387)) is on record?
A: 487

Q: What about the “ErbB Dimer Formation HER1:HER3 (0.5 ug)” value (HER1:HER3; series 3 (FIG. 3; control 398)) of the same substance?
A: 374

Q: And the “Total HER2 (0.2 ug)” value (HER2; series 2 (FIG. 2; Control 4212))?
A: 884

Q: And the “Total HER2 (0.2 ug)” value (HER2; series 3 (FIG. 3; control 3025))?
A: 592

Q: And the “Phos MEK (10 ug)” value (MEK)?
A: 19.8 pg/µg

Q: And the “Total HER3 (0.2 ug)” value (HER3 [1]; series 2 (FIG. 2; Control 7757))?
A: 9488

Q: What about the “Total HER3 (0.2 ug)” value (HER3 [1]; series 3 (FIG. 3; control 4282)) of the same substance?
A: 3743

Q: And the “ErbB Dimer Formation HER2:HER3 (2 ug)” value (HER2:HER3; series 2 (FIG. 2; Control 250.9))?
A: 261.7

Q: And the “ErbB Dimer Formation HER2:HER3 (2 ug)” value (HER2:HER3; series 3 (FIG. 3; control 211.8))?
A: 290.9

Q: What about the “Phos ERK (10 ug)” value (ERK; series 2 (FIG. 2; Control […])) of the same substance?
A: 2.6 pg/µg

Q: What about the “Phos ERK (10 ug)” value (ERK; series 3 (FIG. 3; control 5.3)) of the same substance?
A: 3.6 pg/µg

Q: And the “Phos RSK (10 ug)” value (RSK; series 2 (FIG. 2; Control 289 >ULOQ))?
A: 75.8 pg/µg

Q: And the “Phos RSK (10 ug)” value (RSK; series 3 (FIG. 3; control […] >ULOQ))?
A: 60.2 pg/µg

Q: And the “Total HER1 (1 ug)” value (HER1; series 2 (FIG. 2; Control 171.4))?
A: 184.2

Q: And the “Total HER1 (1 ug)” value (HER1; series 3 (FIG. 3; control 137.2))?
A: 148.4

Q: What about the “Phos HER3 (10 ug)” value (HER3 [2]; series 2 (FIG. 2; Control 236)) of the same substance?
A: 255

Q: And the “Phos HER3 (10 ug)” value (HER3 [2]; series 3 (FIG. 3; control 573))?
A: 754

Q: And the “ErbB Dimer Formation HER1:HER2 (2 ug)” value (HER1:HER2; series 2 (FIG. 2; Control 128.5))?
A: 42.4

Q: And the “ErbB Dimer Formation HER1:HER2 (2 ug)” value (HER1:HER2; series 3 (FIG. 3; control 46.0))?
A: 30.6

Q: And the “Phos AKT (10 ug)” value (AKT; series 2 (FIG. 2; Control 9.6))?
A: 0.79 pg/µg

Q: What about the “Phos AKT (10 ug)” value (AKT; series 3 (FIG. 3; control 11.4)) of the same substance?
A: 2.6 pg/µg
